For 117 compounds, outcome results are on record in PubChem BioAssay AID2550 (Johns Hopkins Ion Channel Center, 2010).

By UniProt entry, the sequences of proteins in these tests, tags left out.
UniProt Q61143, whole entry: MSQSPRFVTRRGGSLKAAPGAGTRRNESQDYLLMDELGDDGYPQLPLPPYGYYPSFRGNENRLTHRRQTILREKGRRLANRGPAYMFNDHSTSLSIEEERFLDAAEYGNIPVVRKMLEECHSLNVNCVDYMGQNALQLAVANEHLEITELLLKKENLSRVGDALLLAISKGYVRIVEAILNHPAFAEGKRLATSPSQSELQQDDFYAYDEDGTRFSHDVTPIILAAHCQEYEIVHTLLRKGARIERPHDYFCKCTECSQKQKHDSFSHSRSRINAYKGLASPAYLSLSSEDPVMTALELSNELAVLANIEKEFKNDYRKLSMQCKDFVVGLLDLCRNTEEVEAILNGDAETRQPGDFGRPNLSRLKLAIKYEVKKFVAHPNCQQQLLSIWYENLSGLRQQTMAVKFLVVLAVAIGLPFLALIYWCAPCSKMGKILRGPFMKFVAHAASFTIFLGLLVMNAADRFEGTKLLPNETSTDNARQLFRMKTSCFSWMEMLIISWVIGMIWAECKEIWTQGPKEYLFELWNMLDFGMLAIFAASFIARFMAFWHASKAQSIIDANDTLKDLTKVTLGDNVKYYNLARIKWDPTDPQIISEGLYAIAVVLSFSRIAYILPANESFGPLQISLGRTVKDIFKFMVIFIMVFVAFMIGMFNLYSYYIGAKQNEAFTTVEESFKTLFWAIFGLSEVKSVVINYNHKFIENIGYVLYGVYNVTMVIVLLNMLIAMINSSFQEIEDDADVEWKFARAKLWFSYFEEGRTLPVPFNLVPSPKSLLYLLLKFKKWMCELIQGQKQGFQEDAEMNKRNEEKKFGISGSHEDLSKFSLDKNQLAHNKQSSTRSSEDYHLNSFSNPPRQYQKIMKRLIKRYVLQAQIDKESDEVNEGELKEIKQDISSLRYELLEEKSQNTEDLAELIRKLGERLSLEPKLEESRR

The entries are a selection whose mix differs from that of the whole data set. Calls of active or inactive are those of the source.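 The calls were made as follows: active = B-score of the integrated fluorescence ratio above library mean plus 3 SD, and starting fluorescence ratio within library mean plus 5 SD; inactive = the rest.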

The assay has as its target Short transient receptor potential channel 6 (Mus musculus) (UniProt Q61143). The experiment in a line: mouse TRPC6 channel activators, primary screen, cell-based, HEK293, membrane potential dye (AID 2550).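 Also: higher score means more depolarization so channel activation.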 Particulars: HEK293-TRPC6 membrane potential dye fluorescence; at 10 µM.
As for `CC1CCN(C(=O)Oc2c(Cl)cc(Cl)c3cccnc23)CC1`, the result was inactive. As for `CN(C)C(=O)OCCc1n(C)cc[n+]1C`, the entry is “inactive”; as for `CC(C)=N/N=C(\N)N[N+](=O)[O-]`, “inactive”; as for `CN(C)C(=O)c1c([N+](=O)[O-])cc([N+](=O)[O-])cc1[N+](=O)[O-]`, “inactive”.

In the case of `Nc1ccc2c(ccc3cccnc32)n1.O=[N+]([O-])c1cc([N+](=O)[O-])c(O)c([N+](=O)[O-])c1`, the compound was called inactive. As for `CP(=O)(OC12CC3CC(CC(C3)C1)C2)OC12CC3CC(CC(C3)C1)C2`, the entry is “inactive”.

As to `O=C(Nc1cc([As](=O)(O)O)ccc1O)c1ccccc1`, the compound was classed as inactive.

In the case of `CCOC(=O)c1ccc(NP(C)(=O)Oc2ccc(Cl)cc2)cc1` (configuration not stated), the result was inactive.

Turning to `O=[N+]([O-])c1ncn(CCn2ncnc2[N+](=O)[O-])n1`, the outcome was inactive. For `CC(C)(C)C(=O)NC(Sc1ccncn1)C(Cl)(Cl)Cl` (configuration not stated), the compound was classed as inactive. As for `O=C(O)CNc1ccc([As](=O)(O)O)cc1`, the entry is “inactive”.

As to `O=[N+]([O-])c1cccc(NC2=NCC(CBr)S2)c1` (configuration not stated), the result was inactive. The result for `O=P(Nc1nc2ccc(Cl)cc2s1)(c1ccccc1)c1ccccc1` reads “inactive”; that for `Cc1cc(C)cc(OP(C)(=O)Nc2cccc(C(F)(F)F)c2)c1` (configuration not stated), “inactive”. The result for `CC(=O)Nc1ccc([As](=O)(O)O)cc1` reads “inactive”. The result for `O=C(O)c1ccccc1[As](=O)(O)O` reads “inactive”; that for `COc1ccc(OP(C)(=O)Nc2ccccc2Br)cc1` (configuration not stated), “inactive”; that for `COc1ccccc1OP(C)(=O)Nc1ccc(C)c(C)c1` (configuration not stated), “inactive”. For `CN(C(=O)Cc1ccc(Cl)c(Cl)c1)[C@H]1CCCC[C@@H]1N1CCCC1`, the compound was classed as inactive. As for `Cc1ccc(NP(=O)(Oc2ccccc2F)Oc2ccccc2F)nc1`, the entry is “inactive”; as for `Cc1cc(SC(NC(=O)c2ccc(F)cc2)C(Cl)(Cl)Cl)ncn1` (configuration not stated), “inactive”; as for `CCOP(=O)(Nc1ccccc1)OCC`, “inactive”. The result for `O=[N+]([O-])c1cc([N+](=O)[O-])c(CCN2CCOCC2)c([N+](=O)[O-])c1` reads “inactive”; that for `Cc1nc2ccc3ccccc3c2o1.O=[N+]([O-])c1cc([N+](=O)[O-])c(O)c([N+](=O)[O-])c1`, “inactive”; that for `CP(=O)(Nc1ccc(Cl)cc1Cl)Oc1ccccc1` (configuration not stated), “inactive”. The result for `CP(=O)(OCCOc1ccccc1)OCCOc1ccccc1` reads “inactive”. With `Nc1cccc2ccc([As](=O)(O)O)cc12`, the compound was called inactive. As for `CCN(N=Nc1nonc1N)c1nonc1N`, the entry is “inactive”; as for `Cc1ccc(N/C(=N/P(=O)(N2CCOCC2)N2CCOCC2)N2CCOCC2)cc1`, “inactive”; as for `COc1ccccc1OP(C)(=O)Nc1ccc(Br)cc1` (configuration not stated), “inactive”.

Regarding `NC(=O)c1cc([N+](=O)[O-])cc([N+](=O)[O-])c1N`, the compound was classed as inactive.

Regarding `CN1CCCC(OC(=O)C(c2ccccc2)c2ccccc2)C1` (configuration not stated), the compound was called inactive. The result for `CN(C)CCOC(=O)C(O)(c1ccccc1)C1CCCC1` (configuration not stated) reads “inactive”. The result for `Clc1ccc(Cl)c(NC2=NCC(CBr)S2)c1` (configuration not stated) reads “inactive”; that for `Cc1ccc(OP(=O)(Nc2nccs2)Oc2ccc(C)cc2)cc1`, “inactive”. As to `COc1ccccc1OP(=O)(Nc1ccc(C)cn1)Oc1ccccc1OC`, the result was inactive. The result for `COc1ccc(OP(C)(=O)Nc2ccccn2)cc1` (configuration not stated) reads “inactive”. With `O=C(NC(Sc1ccncn1)C(Cl)(Cl)Cl)c1ccccc1` (configuration not stated), the compound was classed as inactive. As for `Cc1c2non([O-])c-2c(C)[n+](=O)[n+]1[O-]`, the entry is “inactive”.

For `Oc1ccccc1CNc1ccccn1`, the call was inactive. As for `Nc1cc(N)c2nonc2c1[N+](=O)[O-]`, the compound was called inactive.

On to `Cc1c(NP(C)(=O)Oc2ccc(C(C)C)cc2)c(=O)n(-c2ccccc2)n1C` (configuration not stated), for which the result was inactive. As for `O=[N+]([O-])c1cc([N+](=O)[O-])c(Nc2ccccn2)c([N+](=O)[O-])c1`, the call was inactive. The result for `CC(C)CC(=O)NC(Sc1ccc(Cl)cc1)C(Cl)(Cl)Cl` (configuration not stated) reads “inactive”; that for `CCc1ccc(OP(C)(=O)O)cc1`, “inactive”. For the compound `COc1ccccc1OP(C)(=O)Nc1ccc(C)cc1C` (configuration not stated), the compound was called inactive. As for `CP(=O)(Nc1ccccn1)Oc1ccccc1` (configuration not stated), the result was inactive. Take `Cc1c2c(nc3ccccc13)SC(C(Cl)Cl)C2` (configuration not stated): the result was inactive. The result for `Cc1cc(=O)[nH]c(N[N+](=O)[O-])n1` reads “inactive”; that for `CCN(CC)CCCOC(=O)C(O)(c1ccccc1)c1ccccc1`, “inactive”. The result for `O=C(OC1CN2CCC1CC2)C12CC3CC(CC(C3)C1)C2` (configuration not stated) reads “inactive”. As for `COc1cc(I)ccc1[As](=O)(O)O`, the entry is “inactive”; as for `COc1ccc2nc(NP(=O)(c3ccccc3)c3ccccc3)sc2c1`, “inactive”; as for `COc1ccc(N/C(=N/P(=O)(N2CCOCC2)N2CCOCC2)N2CCOCC2)cc1`, “inactive”. As to `O=[N+]([O-])c1cc([N+](=O)[O-])c(Nc2cccnc2)c([N+](=O)[O-])c1`, the compound was classed as inactive. The result for `C[As](=O)(O)c1cccc(C(=O)O)c1` reads “inactive”.

In the case of `O=[As](O)(c1ccc(O)cc1)c1ccccc1O`, the call was inactive. The result for `Cc1cccc(C)c1OP(C)(N)=O` (configuration not stated) reads “inactive”. The result for `Cc1ccc(OP(=O)(Nc2ccc([N+](=O)[O-])cn2)Oc2ccc(C)cc2)cc1` reads “inactive”; that for `CC(C)(C)c1ccc(OP(C)(=O)Nc2ccc(SC(F)(F)F)cc2)cc1` (configuration not stated), “inactive”; that for `O=[N+]([O-])c1ccc2c(c1)C=Nc1ccccc1O2`, “inactive”.

Take `Cc1ccc2nc3c(c(C)c2c1)CC(C(Cl)Cl)S3` (configuration not stated): the outcome was inactive. The result for `ClCCSc1nnc(-c2cccnc2)o1` reads “inactive”; that for `CCOC(=O)c1ccc(NP(C)(=O)Oc2ccccc2)cc1` (configuration not stated), “inactive”; that for `Cc1ccc(NP(C)(=O)Oc2ccccc2)c(C)c1` (configuration not stated), “inactive”. The result for `CC(C)c1ccc(OP(=O)(Nc2ccccn2)Oc2ccccc2F)cc1` (configuration not stated) reads “inactive”. The result for `COc1ccccc1OP(C)(=O)Nc1ccc(C)cc1` (configuration not stated) reads “inactive”; that for `COc1ccc(OP(C)(=O)Nc2cccc(F)c2)cc1` (configuration not stated), “inactive”; that for `O=[N+]([O-])c1cc([N+](=O)[O-])c(-c2ccn[nH]2)s1`, “inactive”. For `CC(C)NC(=O)NP(=O)(Oc1ccccc1)Oc1ccccc1`, the compound was classed as inactive. For `COc1ccccc1OP(C)(=O)Nc1cc(Cl)ccc1C` (configuration not stated), the call was inactive. The result for `CCN(CC)C(=S)SC(NC=O)C(Cl)(Cl)Cl` (configuration not stated) reads “inactive”; that for `Cc1cc(C)cc(OP(C)(N)=O)c1` (configuration not stated), “inactive”. As for `CCOC(=O)Nc1ccc([As](=O)(O)O)c(O)c1`, the entry is “inactive”; as for `Cc1cc(SC(NC(=O)c2ccccc2)C(Cl)(Cl)Cl)nc(C(C)C)n1` (configuration not stated), “inactive”. As for `CCCCOc1ccc(C(=O)NCC2(N3CCCCC3)CCCCC2)cc1OC`, the compound was classed as inactive.

Regarding `CP(=S)(Nn1cnnc1)Oc1ccccc1` (configuration not stated), the outcome was inactive.

Consider `CCOC(=O)Nc1cccc([As](=O)(O)O)c1`, for which the compound was called inactive. As for `COc1ccccc1OP(C)(=O)Nc1ccccc1` (configuration not stated), the entry is “inactive”.

For `Cc1cc(SC(NC=O)C(Cl)(Cl)Cl)ncn1` (configuration not stated), the compound was classed as inactive. As for `O=P(Nc1ccccn1)(c1cccc2ccccc12)c1cccc2ccccc12`, the entry is “inactive”; as for `O=[N+]([O-])c1ccc(Nc2ccc(Oc3ccc([N+](=O)[O-])cc3[N+](=O)[O-])cc2)c([N+](=O)[O-])c1`, “inactive”. `CP(=O)(Nc1ccccc1Br)Oc1ccccc1` (configuration not stated): the outcome was inactive. As for `CP(=O)(Oc1ccccc1)OC(c1ccccc1)C(F)(F)F` (configuration not stated), the entry is “inactive”; as for `COP1(=S)c2c(C)nn(CCC#N)c2N=C(c2ccc(F)cc2)N1C` (configuration not stated), “inactive”; as for `CP(=O)(Nc1ccc(SC(F)(F)F)cc1)Oc1ccc(Cl)cc1` (configuration not stated), “inactive”. For `Cc1cccc(C)c1OP(C)(=O)Nc1ccc(SC(F)(F)F)cc1` (configuration not stated), the call was inactive. On to `O=C(Nc1ccncc1[N+](=O)[O-])c1ccc([N+](=O)[O-])cc1[N+](=O)[O-]`, for which the outcome was inactive. As for `Cc1cc(C)cc(OP(C)(=O)Nc2ccc(SC(F)(F)F)cc2)c1` (configuration not stated), the entry is “inactive”; as for `CP(=O)(NC(=O)Nc1ccccc1)Oc1ccccc1` (configuration not stated), “inactive”; as for `O=C(COc1ccccc1)OC1CN2CCC1CC2` (configuration not stated), “inactive”.

Turning to `CCc1ccc(OP(C)(=O)N2CCN(c3ccc([N+](=O)[O-])cc3)CC2)cc1` (configuration not stated), the call was inactive.

On to `CCOP(C)(=S)SCC(=O)NC(C)C(=O)O` (configuration not stated), for which the outcome was inactive.

As to `O=C(OC1CN2CCC1CC2)c1cccc([N+](=O)[O-])c1` (configuration not stated), the compound was called inactive. Consider `O=[N+]([O-])c1cc([N+](=O)[O-])c(O)c([N+](=O)[O-])c1.c1ccc(Oc2ccncc2)cc1`, for which the call was inactive. The result for `CCOC(=O)c1ccc(NC(=O)C(C)(CCl)SC)cc1` (configuration not stated) reads “inactive”; that for `CCOC(=O)c1ccc(NP(C)(=O)Oc2ccc(OC)cc2)cc1` (configuration not stated), “inactive”; that for `CCC(C)N(CC(C)C)C(=S)SC(NC(C)=O)C(Cl)(Cl)Cl` (configuration not stated), “inactive”.

With `CP(=O)(Nc1ccccn1)Oc1ccc(Cl)cc1` (configuration not stated), the result was inactive. The result for `O=[N+]([O-])c1cc([N+](=O)[O-])c(-n2nnc3ccccc32)c([N+](=O)[O-])c1` reads “inactive”; that for `CCOP(=O)(NC(=NC(C)c1ccccc1)NC(C)c1ccccc1)OCC` (configuration not stated), “inactive”; that for `CCC1=CC2Cc3nc4ccc(Cl)cc4c(N)c3C(C1)C2` (configuration not stated), “inactive”.

As to `O=P1(Nc2ccccn2)COc2ccccc2OC1`, the result was inactive. As for `CCOP(=O)(Nc1ccc(C)cn1)OCC`, the entry is “inactive”; as for `CN(CCCl)Cc1cc(Cl)c(NC2=NCCN2)c(Cl)c1`, “inactive”; as for `CC(C)(C)C(=O)NC(Sc1ncccn1)C(Cl)(Cl)Cl` (configuration not stated), “inactive”.

On to `Clc1n[nH]nc1-c1nn[nH][15n]1`, for which the compound was classed as inactive. As for `O=[N+]([O-])c1cc([N+](=O)[O-])c(-c2cnn(-c3ccccc3)c2)c([N+](=O)[O-])c1`, the entry is “inactive”. The result for `COc1ccccc1CNC(=O)COC(=O)C(O)(c1ccccc1)c1ccccc1` reads “inactive”.

Regarding `CN(C(=O)Cc1ccc(Cl)c(Cl)c1)[C@@H]1CCCC[C@H]1N1CCCC1`, the compound was called inactive. The result for `CC(C)/C=N\N=C(\N)N[N+](=O)[O-]` reads “inactive”; that for `CC1(CBr)Cn2c(nc3ccccc3c2=O)S1` (configuration not stated), “inactive”; that for `O=[As](O)(c1ccccc1Br)c1ccccc1Br`, “inactive”. As for `Cc1ccc(C(=O)OC2CN3CCC2CC3)cc1` (configuration not stated), the entry is “inactive”. As for `CC1CCC(C(C)C)C(OP(=O)(Nc2ccccn2)c2ccccc2)C1` (configuration not stated), the entry is “inactive”; as for `Cc1nn(-c2ccccc2)c2c1P(=O)(N1CCOCC1)N(C)C(c1ccccc1)=N2` (configuration not stated), “inactive”. In the case of `COc1cc(C2NCCC3(OCCO3)C2(C)C)cc(OC)c1OC.O=[N+]([O-])c1cc([N+](=O)[O-])c(O)c([N+](=O)[O-])c1` (configuration not stated), the compound was called inactive.
